The results in this text go back to patent publication US8354416B2 (Glaxo Group Limited, priority 2005, dated 2013).

In the assay the test system is influx of neutrophils to the lung in LPS-challenged rats. In words: Rat LPS neutrophilia model. The class given is in vivo. The following applies: intratracheal, LPS aerosol 100 ug/ml, in at least one of the range of conditions tested, significance p<0.05. Here is the method: Rat LPS Neutrophilia Model
The effect of compounds on the influx of neutrophils to the lung in LPS-challenged rats is evaluated as follows. The test compound is suspended in one of the following solutions: 0.5% tween 80/PBS, 0.5% tween 80/saline, 10% EtOH/saline (with pH adjusted to 2.0, or 8.0 with HCl, or unadjusted), Saline (pH 2.0, 6.5 or 8.0, 0.5% Tragacanth, 1% DMSO/20% Encapsin/Saline, or acidified 5% Tragacanth. The suspension process may be aided by the use of a glass homogenizer. For intratracheal administration, the animals are anesthetized with inhaled isoflurane and placed in a supine position, the trachea is intubated with a steel gavage needle (1.5 inch, 22 gauge, small ball) or a Penn-Century Microsprayer Aerosolizer (model IA-1B) and 200 ul of dosing solution is delivered. The animals are visually monitored during the recovery process, which typically occurs within two minutes. It is noted that the test compounds may be alternatively administered via the microsprayer in a dry powder blend with a suitable excipient, such as lactose.
Rats treated with compound or vehicle (15 min-24 hours pretreatment) are exposed to an LPS aerosol (100 ug/ml) for 15 min. Four hours later the rats are euthanized with pentobarbital (100 mg/kg, i.p.) and the airways are lavaged with 5 washes of 5 ml of phosphate buffered saline. The harvested cells are stained (Diffquick) and counted to determine total and differential cell data. […] Inhibition of neutrophil levels relative to no compound controls is calculated based on the differential counts.
The data is obtained as % inhibition using a particular concentration and pretreat time.
On to `CCCNC(=O)c1ccc(C)c(-c2nc(NCCCN(CC)CC)nc3c2ccc(=O)n3-c2c(F)cccc2F)c1` [Example 122, 3-[2-{[3-(diethylamino)propyl]amino}-8-(2,6-difluorophenyl)-7-oxo-7,8-dihydropyrido[2,3-d]pyrimidin-4-yl]-4-methyl-N-propylbenzamide], for which the “inhibition of neutrophilia (neutrophil levels in airway lavage relative to no compound controls)” value is on record as “statistically nonsignificant inhibition of neutrophilia”.
To `CCN(CC)CCCNc1nc(-c2cc(C(=O)NCC(C)C)ccc2C)c2ccc(=O)n(-c3c(F)cccc3F)c2n1` [Example 124, 3-[2-{[3-(diethylamino)propyl]amino}-8-(2,6-difluorophenyl)-7-oxo-7,8-dihydropyrido[2,3-d]pyrimidin-4-yl]-4-methyl-N-(2-methylpropyl)benzamide] belongs “statistically significant inhibition of neutrophilia”; to `CCN(CC)CCCNc1nc(-c2cc(C(=O)NC3CCCC3)ccc2C)c2ccc(=O)n(-c3c(F)cccc3F)c2n1` [Example 125, N-cyclopentyl-3-[2-{[3-(diethylamino)propyl]amino}-8-(2,6-difluorophenyl)-7-oxo-7,8-dihydropyrido[2,3-d]pyrimidin-4-yl]-4-methylbenzamide], “statistically nonsignificant inhibition of neutrophilia”.
To `CCN(CC)CCCNc1nc(-c2cc(C(=O)NCC(F)(F)F)ccc2C)c2ccc(=O)n(-c3c(F)cccc3F)c2n1` [Example 128, 3-[2-{[3-(diethylamino)propyl]amino}-8-(2,6-difluorophenyl)-7-oxo-7,8-dihydropyrido[2,3-d]pyrimidin-4-yl]-4-methyl-N-(2,2,2-trifluoroethyl)benzamide] belongs “inactive”; to `CCNC(=O)c1ccc(C)c(-c2nc(NCCCN(CC)CC)nc3c2ccc(=O)n3-c2c(F)cccc2F)c1` [Example 129, 3-[2-{[3-(diethylamino)propyl]amino}-8-(2,6-difluorophenyl)-7-oxo-7,8-dihydropyrido[2,3-d]pyrimidin-4-yl]-N-ethyl-4-methylbenzamide], “statistically nonsignificant inhibition of neutrophilia”.
